Source: patent US7439039B2, “Assays for novel serotonin transporter (SERT) blockers” (priority 2003, dated 2008)

Amino acid sequences for entries named in this document (tags omitted).
UniProt Q60857, whole entry G39E/K152R: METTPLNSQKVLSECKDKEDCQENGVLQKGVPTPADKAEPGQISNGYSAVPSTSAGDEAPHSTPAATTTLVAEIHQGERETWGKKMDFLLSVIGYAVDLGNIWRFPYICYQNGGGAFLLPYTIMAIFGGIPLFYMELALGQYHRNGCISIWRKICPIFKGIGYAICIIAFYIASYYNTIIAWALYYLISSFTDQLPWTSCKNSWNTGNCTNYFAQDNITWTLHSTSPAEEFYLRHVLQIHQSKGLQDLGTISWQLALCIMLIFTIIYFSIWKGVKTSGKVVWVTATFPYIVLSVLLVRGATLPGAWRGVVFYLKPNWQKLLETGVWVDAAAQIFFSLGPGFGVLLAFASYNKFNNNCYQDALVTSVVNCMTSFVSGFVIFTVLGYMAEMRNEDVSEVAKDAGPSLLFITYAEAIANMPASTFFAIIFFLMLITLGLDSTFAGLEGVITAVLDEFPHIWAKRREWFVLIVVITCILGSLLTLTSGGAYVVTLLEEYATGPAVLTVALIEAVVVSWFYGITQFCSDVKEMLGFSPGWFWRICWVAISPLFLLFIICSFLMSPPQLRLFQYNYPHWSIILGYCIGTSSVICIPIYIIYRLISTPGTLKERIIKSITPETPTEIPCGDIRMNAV

Biological target: mSERT WT (Mus musculus, UniProt Q60857, G39E/K152R)
Assay: cell-based

Row | SMILES | EC50 [nM]
1 | CN1c2ccccc2C(NCCCCCCC(=O)O)c2ccc(Cl)cc2S1(=O)=O (centres unmarked) [Tianeptine] | 3800
2 | NCCc1c[nH]c2ccc(O)cc12 [5HT, 5-hydroxytryptamine] | 600
